Measured values taken from patent publication US7647217B2, “Structure of the farnesoid X receptor ligand binding domain and methods of use therefor” (The Salk Institute for Biological Studies, priority 2002, dated 2010).

Amino acid sequences for entries named in this document (tags omitted).
UniProt Q60641, whole entry: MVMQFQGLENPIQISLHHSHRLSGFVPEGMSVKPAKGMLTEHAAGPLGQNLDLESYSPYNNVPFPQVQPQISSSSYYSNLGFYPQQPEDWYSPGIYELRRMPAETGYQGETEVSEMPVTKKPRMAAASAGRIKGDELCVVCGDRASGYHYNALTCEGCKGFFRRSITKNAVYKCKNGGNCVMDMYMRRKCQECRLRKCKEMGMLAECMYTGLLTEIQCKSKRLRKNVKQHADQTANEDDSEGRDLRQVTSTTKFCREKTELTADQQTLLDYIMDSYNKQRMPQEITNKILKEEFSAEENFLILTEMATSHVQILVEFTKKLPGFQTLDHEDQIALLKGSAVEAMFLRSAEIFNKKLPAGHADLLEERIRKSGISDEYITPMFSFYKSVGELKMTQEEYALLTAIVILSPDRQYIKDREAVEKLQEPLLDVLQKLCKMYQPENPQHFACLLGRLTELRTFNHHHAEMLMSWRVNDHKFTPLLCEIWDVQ
UniProt P19793, whole entry partner: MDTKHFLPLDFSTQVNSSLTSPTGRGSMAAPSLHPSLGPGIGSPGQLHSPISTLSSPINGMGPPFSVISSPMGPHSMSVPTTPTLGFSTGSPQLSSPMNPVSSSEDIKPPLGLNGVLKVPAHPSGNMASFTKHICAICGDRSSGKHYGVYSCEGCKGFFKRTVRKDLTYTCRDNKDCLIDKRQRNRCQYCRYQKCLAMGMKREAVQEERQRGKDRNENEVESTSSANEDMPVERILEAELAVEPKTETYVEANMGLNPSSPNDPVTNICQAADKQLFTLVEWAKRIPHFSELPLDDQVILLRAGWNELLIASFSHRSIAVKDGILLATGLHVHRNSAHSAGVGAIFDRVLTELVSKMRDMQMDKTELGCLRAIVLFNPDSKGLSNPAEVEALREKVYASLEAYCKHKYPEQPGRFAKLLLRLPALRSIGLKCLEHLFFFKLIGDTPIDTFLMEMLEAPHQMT

Target: FXR (Mus musculus, UniProt Q60641)
Test: Cell-based screen: full-length FXR expression vector co-transfected with hormone response element luciferase reporter
Conditions: versus prototypical lead structure, after optimization of regions I and II

COC(=O)/C=C/c1cccc(N(Cc2ccc3c(c2OC)OC(C)(C)C=C3)C(=O)C2CCCCC2)c1
enhancement in the potency: more than 10 fold
